Measured values reported in paper PMC4660513 (Pharmacognosy Research, 2015).

Tested on: rat liver microsomes
Assay: 4-MU glucuronidation inhibition assay in rat liver microsomes
Assay type: in vitro ADME
Conditions: comparison of IC50 values

## CNC1(c2ccccc2Cl)CCCCC1=O (stereo not shown) [Ketamine, Ketamine hydrochloride]
  potency relative to diclofenac: about three orders of magnitude more potent than diclofenac

Where a name gives a salt, the structure may show the parent alone.
